We go through one compound from ChEMBL document CHEMBL1287717, “Design and synthesis of macrocyclic indoles targeting blood coagulation cascade Factor XIa” (Bioorg Med Chem Lett, 2010).

The experiment addresses Prothrombin (Homo sapiens, UniProt P00734). In words: Inhibition of factor 2a.

SMILES strings stand for the structures. pKi: −log10 of the molar value.

`O=C1COc2ccc(Cl)cc2CNC(=O)[C@@H]2CCCN2C(=O)[C@@H](C2CCCCC2)NC(=O)CCN1` gave a pKi of 8.89.

By pKi is commonly meant the Ki on a negative log10 scale, so that one unit is a factor of ten. Read a high pKi as a small Ki.
